Laboratory results as given in ChEMBL document CHEMBL4507279, “Data for DCP probe BI-9627” (2021).

Protein sequences, listed by entry. Tags and fused reporters are not part of them. Lines headed by an entry give the natural chain unless they say otherwise; changes in a name come on top.
UniProt P49651: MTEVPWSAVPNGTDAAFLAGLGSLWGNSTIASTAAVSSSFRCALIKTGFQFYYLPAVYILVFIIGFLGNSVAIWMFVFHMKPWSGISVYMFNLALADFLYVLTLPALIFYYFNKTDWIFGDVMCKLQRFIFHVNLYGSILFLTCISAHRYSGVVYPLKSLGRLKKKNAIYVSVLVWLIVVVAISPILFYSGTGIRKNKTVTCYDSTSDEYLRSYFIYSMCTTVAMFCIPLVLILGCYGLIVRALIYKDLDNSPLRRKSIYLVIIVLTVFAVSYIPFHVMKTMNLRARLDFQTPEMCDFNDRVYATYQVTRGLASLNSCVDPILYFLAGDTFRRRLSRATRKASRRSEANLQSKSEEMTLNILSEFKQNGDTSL
UniProt P27448: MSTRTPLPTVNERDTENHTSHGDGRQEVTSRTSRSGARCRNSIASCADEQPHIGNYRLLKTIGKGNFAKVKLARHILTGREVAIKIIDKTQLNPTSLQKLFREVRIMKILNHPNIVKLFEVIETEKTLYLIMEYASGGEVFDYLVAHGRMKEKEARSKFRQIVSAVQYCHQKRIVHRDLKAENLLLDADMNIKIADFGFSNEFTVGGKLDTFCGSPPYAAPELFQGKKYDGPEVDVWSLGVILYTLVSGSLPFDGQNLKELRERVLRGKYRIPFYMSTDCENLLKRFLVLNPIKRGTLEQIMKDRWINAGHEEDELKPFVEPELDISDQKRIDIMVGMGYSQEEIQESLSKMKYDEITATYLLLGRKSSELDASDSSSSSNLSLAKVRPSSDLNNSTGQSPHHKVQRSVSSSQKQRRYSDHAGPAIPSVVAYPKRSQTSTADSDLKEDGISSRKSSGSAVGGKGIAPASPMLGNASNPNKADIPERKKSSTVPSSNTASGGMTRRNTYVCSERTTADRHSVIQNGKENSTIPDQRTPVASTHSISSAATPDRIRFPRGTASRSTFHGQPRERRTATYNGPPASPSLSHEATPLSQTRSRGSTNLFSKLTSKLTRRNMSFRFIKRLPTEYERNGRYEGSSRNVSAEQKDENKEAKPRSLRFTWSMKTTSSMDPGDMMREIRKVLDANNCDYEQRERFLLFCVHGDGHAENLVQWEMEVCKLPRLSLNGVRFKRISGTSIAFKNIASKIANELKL
UniProt Q15759, whole entry: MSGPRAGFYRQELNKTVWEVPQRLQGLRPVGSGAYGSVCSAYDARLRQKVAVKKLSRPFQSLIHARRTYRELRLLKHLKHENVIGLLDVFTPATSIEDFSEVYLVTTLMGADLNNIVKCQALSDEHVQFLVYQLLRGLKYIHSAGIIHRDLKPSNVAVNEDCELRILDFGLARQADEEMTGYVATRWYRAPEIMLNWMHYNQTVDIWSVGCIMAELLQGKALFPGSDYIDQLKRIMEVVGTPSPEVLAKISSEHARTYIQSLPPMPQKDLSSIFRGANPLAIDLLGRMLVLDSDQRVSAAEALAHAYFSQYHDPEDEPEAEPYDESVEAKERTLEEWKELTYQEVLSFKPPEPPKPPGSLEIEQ
Proto-oncogene tyrosine-protein kinase receptor Ret (Homo sapiens), P07949, UniProt P07949, whole entry M918T: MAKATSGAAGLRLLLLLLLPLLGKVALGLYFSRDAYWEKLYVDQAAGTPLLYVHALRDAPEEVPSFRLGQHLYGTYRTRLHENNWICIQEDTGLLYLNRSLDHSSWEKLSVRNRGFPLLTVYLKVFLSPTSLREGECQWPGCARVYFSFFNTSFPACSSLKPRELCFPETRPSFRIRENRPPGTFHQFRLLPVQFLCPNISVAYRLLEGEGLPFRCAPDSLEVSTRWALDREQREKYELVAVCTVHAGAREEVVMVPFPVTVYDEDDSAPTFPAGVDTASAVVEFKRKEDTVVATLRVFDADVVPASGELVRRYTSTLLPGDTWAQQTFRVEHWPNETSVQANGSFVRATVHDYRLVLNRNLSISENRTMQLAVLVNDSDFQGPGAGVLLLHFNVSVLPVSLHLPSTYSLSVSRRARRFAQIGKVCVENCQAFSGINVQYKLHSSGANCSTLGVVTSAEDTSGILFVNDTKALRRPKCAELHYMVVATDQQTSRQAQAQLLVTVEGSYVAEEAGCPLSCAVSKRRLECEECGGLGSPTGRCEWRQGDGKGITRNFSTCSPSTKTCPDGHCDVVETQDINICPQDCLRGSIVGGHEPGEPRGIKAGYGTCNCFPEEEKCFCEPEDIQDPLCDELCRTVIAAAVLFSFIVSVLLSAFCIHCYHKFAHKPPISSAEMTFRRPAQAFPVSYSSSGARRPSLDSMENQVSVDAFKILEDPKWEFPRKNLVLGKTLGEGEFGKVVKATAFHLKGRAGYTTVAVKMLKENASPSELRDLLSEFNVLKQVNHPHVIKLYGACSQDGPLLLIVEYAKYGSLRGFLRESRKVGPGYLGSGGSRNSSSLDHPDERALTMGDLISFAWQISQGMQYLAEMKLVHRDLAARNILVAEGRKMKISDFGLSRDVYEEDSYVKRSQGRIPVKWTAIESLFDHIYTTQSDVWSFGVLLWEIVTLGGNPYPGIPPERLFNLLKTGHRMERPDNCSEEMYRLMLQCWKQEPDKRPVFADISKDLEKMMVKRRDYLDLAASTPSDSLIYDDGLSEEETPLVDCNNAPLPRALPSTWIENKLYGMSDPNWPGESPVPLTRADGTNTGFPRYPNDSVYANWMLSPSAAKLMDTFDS

Legend:
[1] = biological target: Epidermal growth factor receptor (Homo sapiens) (UniProt P00533); assay: EGF/HU Eurofins-Panlabs selectivity data (BI); settings: Compound concentration 10.0 uM
[2] = biological target: P2Y purinoceptor 1 (Rattus norvegicus) (UniProt P49651); assay: P2Y/RAT Eurofins-Panlabs selectivity data (BI); settings: Compound concentration 10.0 uM
[3] = biological target: MAP/microtubule affinity-regulating kinase 3 (Homo sapiens) (UniProt P27448); settings: Compound concentration 1000.0 nM
[4] = biological target: Mitogen-activated protein kinase 11 (Homo sapiens) (UniProt Q15759); settings: Compound concentration 1000.0 nM
[5] = system: Proto-oncogene tyrosine-protein kinase receptor Ret (Homo sapiens), P07949 [M918T]; settings: Compound concentration 1000.0 nM
[6] = system: imidazoline I2 binding site (Rattus norvegicus); assay: I2/CENTR/R Eurofins-Panlabs selectivity data (BI); settings: Compound concentration 10.0 uM
[7] = system: sodium channel alpha subunit, site 2 (Rattus norvegicus); assay: NA+/SITE2/RA Eurofins-Panlabs selectivity data (BI); settings: Compound concentration 10.0 uM

Measured: residual activity

CC(=O)N1CCC(c2ccc(C(=O)NC(=N)N)cc2C(F)(F)F)CC1 [BI 9627]
inactive: [1] 88% | [2] 88% | [3] 88% | [4] 88% | [5] 88% | [6] 88% | [7] 60%
